Laboratory results: ChEMBL document CHEMBL6134779, “Design of Proteolytic-Resistant Antifungal Peptides by Utilizing Minimum d-Amino Acid Ratios” (J Med Chem, 2024)

Experiment: Hemolytic activity in human red blood cells assessed as hemolysis incubated for 1 hr
Type: toxicity, cell-based, Erythrocyte

CC[C@H](C)[C@H](NC(=O)CN)C(=O)NCC(=O)N[C@@H](C)C(=O)N[C@H](C(=O)N[C@@H](CC(C)C)C(=O)N[C@@H](CCCCN)C(=O)N[C@H](C(=O)N[C@@H](CC(C)C)C(=O)N[C@H](C(=O)N[C@H](C(=O)NCC(=O)N[C@@H](CC(C)C)C(=O)N1CCC[C@H]1C(=O)N[C@@H](C)C(=O)N[C@@H](CC(C)C)C(=O)N[C@H](C(=O)N[C@@H](CO)C(=O)N[C@@H](Cc1c[nH]c2ccccc12)C(=O)N[C@H](C(=O)N[C@@H](CCCCN)C(=O)N[C@@H](CCCNC(=N)N)C(=O)N[C@@H](CCCCN)C(=O)N[C@@H](CCCNC(=N)N)C(=O)N[C@@H](CCC(N)=O)C(=O)N[C@@H](CCC(N)=O)C(N)=O)[C@@H](C)CC)[C@@H](C)CC)[C@@H](C)O)[C@@H](C)O)C(C)C)C(C)C [MELITTIN]
HC50 at 1 h: 4 µM
